{
  "source": "paper PMC8744071",
  "about": "(ACS infectious diseases, 2021)",
  "biological_target": "T1, FPR1 (Homo sapiens, UniProt P21462)",
  "T1 sequence (P21462 1-350)": "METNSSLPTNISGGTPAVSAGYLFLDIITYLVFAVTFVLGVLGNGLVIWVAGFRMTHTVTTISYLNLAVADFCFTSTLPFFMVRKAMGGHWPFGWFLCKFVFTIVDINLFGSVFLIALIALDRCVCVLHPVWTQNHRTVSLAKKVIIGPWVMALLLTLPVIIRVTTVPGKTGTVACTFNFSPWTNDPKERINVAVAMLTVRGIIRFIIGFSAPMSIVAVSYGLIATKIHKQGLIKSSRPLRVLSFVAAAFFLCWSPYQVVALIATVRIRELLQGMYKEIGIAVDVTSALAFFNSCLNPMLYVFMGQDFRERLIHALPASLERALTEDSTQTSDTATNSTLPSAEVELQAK",
  "test": "FPR1 receptor internalization in GFP-FPR1 HEK293T cells",
  "type": "cell-based",
  "note": "Where two headings read alike, the source gives them in different places.",
  "data": [
    {"substance": "Formylmethionyl-leucyl-phenylalanine [fMLF]", "values": [
      {"measurement": "FPR1 internalization / signaling", "value": "bind and induce internalization the receptor"},
      {"measurement": "FPR1 internalization / signaling", "setting": "listed as FMLP", "value": "internalized"}
    ]}
  ]
}
